Assays:
IRE1 = IRE1 (Homo sapiens, UniProt O75460); test: Luciferase assay in cells; conditions: read-out: IC50 (Luciferase); Table 5
Experimental: Luciferase assays—Cells were seeded in 96-well plate. Cells were treated with increasing concentration of Z4 and analogues. Medium was discarded and the plate was tapped to remove residual medium. 100 μL of lysis buffer (25 mM Tricine pH 7.8; 15 mM Potassium Phosphate pH 7.8; 15 mM MgSO4; 4 mM EGTA; 1% Triton X-100; 1 mM DTT) were added per well and incubated for 20 minutes at RT. 50 μL were transferred to a white 96-well plate and 50 μL of substrate buffer (25 mM Tricine pH 7.8; 15 mM Potassium Phosphate pH 7.8; 15 mM MgSO4; 4 mM EGTA; 1% Triton X-100; 1 mM DTT; 1 mM ATP; 0.2 mM luciferin) were added in each well and the luminescence was read.
IRE1—Mediated In Vitro RNase Assay and Luciferase Assay

Chains of the proteins cited; added tags and fusions are not shown. Residues count along the entry.
UniProt O75460, 19-977 limits assumed: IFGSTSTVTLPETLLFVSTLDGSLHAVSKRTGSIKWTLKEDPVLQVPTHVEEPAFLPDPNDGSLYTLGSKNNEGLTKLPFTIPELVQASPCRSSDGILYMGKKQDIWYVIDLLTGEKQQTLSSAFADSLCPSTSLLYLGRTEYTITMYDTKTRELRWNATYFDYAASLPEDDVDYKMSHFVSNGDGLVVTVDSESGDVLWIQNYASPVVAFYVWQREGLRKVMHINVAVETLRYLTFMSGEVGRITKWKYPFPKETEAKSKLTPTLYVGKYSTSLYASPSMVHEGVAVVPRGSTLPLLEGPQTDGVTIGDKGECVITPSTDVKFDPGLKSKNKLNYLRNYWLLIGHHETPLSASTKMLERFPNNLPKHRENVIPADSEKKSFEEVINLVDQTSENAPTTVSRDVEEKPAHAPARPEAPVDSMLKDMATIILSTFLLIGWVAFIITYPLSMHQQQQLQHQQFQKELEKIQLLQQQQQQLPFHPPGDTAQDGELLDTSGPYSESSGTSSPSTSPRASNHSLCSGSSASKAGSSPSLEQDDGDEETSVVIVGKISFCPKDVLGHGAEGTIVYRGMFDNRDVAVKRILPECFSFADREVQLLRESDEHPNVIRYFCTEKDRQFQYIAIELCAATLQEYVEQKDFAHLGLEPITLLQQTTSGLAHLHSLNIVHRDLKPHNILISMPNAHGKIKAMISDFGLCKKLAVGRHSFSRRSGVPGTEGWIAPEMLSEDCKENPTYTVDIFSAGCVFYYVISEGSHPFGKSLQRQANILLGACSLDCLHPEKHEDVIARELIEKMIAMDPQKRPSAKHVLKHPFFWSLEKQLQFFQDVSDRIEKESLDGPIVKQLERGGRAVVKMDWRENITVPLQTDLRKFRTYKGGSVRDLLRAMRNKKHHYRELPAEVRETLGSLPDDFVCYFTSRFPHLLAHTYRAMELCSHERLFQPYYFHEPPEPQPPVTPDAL

Xbp1 mRNA splicing = Xbp1 mRNA splicing in orthotopic U87-luc tumors in mice; conditions: i.p. 300 μg/kg daily
Source text: Tumor cell orthotopic implantation—Tumor cells (U87-Luc (A. Jabouille, et al., Oncotarget, 2015, 6, 24922-24934)) were implanted into the brain of immunodeficient NMRI-Foxnlnu/Foxn1nu, 8 weeks old male mice (Janvier Laboratories, Laval, France). All animal procedures met the European Community Directive guidelines (Agreement B35-238-40 Biosit Rennes, France/No DIR 13480) and were approved by the local (University of Rennes) ethics committee and ensuring the breeding and the daily monitoring of the animals in the best conditions of wellbeing according to the law and the rule of 3R (Reduce-Refine-Replace). […] After incising the scalp, the stereotaxic coordinates were calculated for injection of tumor cells into a specific point of the brain, and reproducible for all the mice used. […]
Mouse treatments—Four days after tumor cells implantation, compound 28 (Z4P) treatments were started consisting in treatments of 300 μg/kg/day intraperitonially. For the RNA quantification experiment, performed on tumors generated in mice, three mice per group were treated according to the methods above. […]
Quantitative real-time PCR—Total RNA was prepared using TRIzol reagent (Invitrogen, Carlsbad, CA, USA). […] Each sample was extract individually for RNA and performed the quantification of mRNA levels by qPCR for several targets. […]

Compound: Cc1ccc(C)c(NC(=O)NC(C)CCc2ccc(O)cc2)c1 (racemic)
- IC50 (IRE1): 1620 nM
- splicing of Xbp1 mRNA in tumors (Xbp1 mRNA splicing; 34 days (FIG. 5B)): decreased the splicing of Xbp1 mRNA
- crossing of the BBB (Xbp1 mRNA splicing; implied from tumor Xbp1 mRNA splicing (FIG. 5B)): crossed the BBB

— patent US20260382588A1, “COMPOUNDS CONTAINING A HYDROXYPHENYL MOIETY AND THEIR USE” (published 2026)
